Results from patent publication US6908919B2, “Substituted polycyclic aryl and heteroaryl pyrazinones useful for selective inhibition of the coagulation cascade” (Pharmacia Corporation, priority 1999, dated 2005).

Amino acid sequences for entries named in this document (tags omitted). Residues count along the entry.
UniProt P00761, 9-231: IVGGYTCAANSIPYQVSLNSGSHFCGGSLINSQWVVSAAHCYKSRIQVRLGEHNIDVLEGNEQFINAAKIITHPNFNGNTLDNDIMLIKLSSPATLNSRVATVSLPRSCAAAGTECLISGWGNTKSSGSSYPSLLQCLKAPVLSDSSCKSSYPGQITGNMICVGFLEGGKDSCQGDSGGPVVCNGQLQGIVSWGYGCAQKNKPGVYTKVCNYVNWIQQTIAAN

Molecular target: Trypsin (type IX from porcine pancreas) (Sus scrofa, UniProt P00761)
Assay: Trypsin Assay
Conditions: not given

| Compound | IC50 [nM] |
| --- | --- |
| CC(C)Nc1nc(Cl)c(-c2cc(N)ccc2SCC(=O)O)n(CC(=O)NCc2ccc(C(=N)N)cc2)c1=O [Example 110] | 370 |
| CSc1ccc(N)cc1-c1c(Cl)nc(NC(C)C)c(=O)n1CC(=O)NCc1ccc(C(=N)N)cc1 [Example 111] | 280 |
| COC(=O)c1cccc(Sc2ccc(N)cc2-c2c(Cl)nc(NC(C)C)c(=O)n2CC(=O)NCc2ccc(C(=N)N)cc2)c1 [Example 112] | 32 |
| COC(=O)c1cc(N)cc(-c2cnc(NC3CCC3)c(=O)n2CC(=O)NCc2ccc(C(=N)N)cc2)c1 [Example 117] | 22 |
| N=C(N)c1ccc(CNC(=O)Cn2c(-c3cc(N)nc(C(=O)O)c3)cnc(NC3CCC3)c2=O)cc1 [Example 120] | 22 |
| CC(C)Nc1ncc(-c2cc(N)cc(N)c2)n(CC(=O)NCc2ccc(C(=N)N)cc2)c1=O [Example 121] | 17 |
| CC(C)Nc1nc(Cl)c(-c2cc(N)cc(C(=O)O)c2)n(CC(=O)NCc2ccc(C(=N)N)cc2)c1=O [Example 123] | 90 |
| COC(=O)c1cc(N)cc(-c2c(Cl)nc(NC(C)C)c(=O)n2CC(=O)NCc2ccc(C(=N)N)cc2)c1 [Example 125] | 29 |
| CC(C)Nc1nc(Cl)c(-c2cc(N)cc(C(N)=O)c2)n(CC(=O)NCc2ccc(C(=N)N)cc2)c1=O [Example 128-1] | 40 |
| CC(C)Nc1nc(Cl)c(-c2cc(N)cc(C(=O)N(C)Cc3ccccc3)c2)n(CC(=O)NCc2ccc(C(=N)N)cc2)c1=O [Example 128-2] | 56 |
| CC(C)Nc1nc(Cl)c(-c2cc(N)cc(C(=O)NC(C)c3ccccc3)c2)n(CC(=O)NCc2ccc(C(=N)N)cc2)c1=O (stereo not drawn) [Example 128-3] | 33 |
| CC(C)Nc1nc(Cl)c(-c2cc(N)cc(C(=O)NC(C)(C)c3ccccc3)c2)n(CC(=O)NCc2ccc(C(=N)N)cc2)c1=O [Example 128-4] | 51 |
| CC(C)Nc1nc(Cl)c(-c2cc(N)cc(C(=O)NCc3cc(C(F)(F)F)cc(C(F)(F)F)c3)c2)n(CC(=O)NCc2ccc(C(=N)N)cc2)c1=O [Example 128-6] | 481 |
| CC(C)Nc1nc(Cl)c(-c2cc(N)cc(C(=O)NCc3ccc(C(C)(C)C)cc3)c2)n(CC(=O)NCc2ccc(C(=N)N)cc2)c1=O [Example 128-7] | 229 |
| CC(C)Nc1nc(Cl)c(-c2cc(N)cc(C(=O)NCc3ccccc3)c2)n(CC(=O)NCc2ccc(C(=N)N)cc2)c1=O [Example 128-9] | 41 |
| CC(C)Nc1nc(Cl)c(-c2cc(N)cc(C(=O)NCc3ccccc3Cl)c2)n(CC(=O)NCc2ccc(C(=N)N)cc2)c1=O [Example 128-10] | 51 |

| Compound | IC50 [nM] |
| --- | --- |
| CC(C)Nc1nc(Cl)c(-c2cc(N)cc(C(=O)NCc3ccccc3C(F)(F)F)c2)n(CC(=O)NCc2ccc(C(=N)N)cc2)c1=O [Example 128-11] | 54 |
| CC(C)Nc1nc(Cl)c(-c2cc(N)cc(C(=O)NCc3cccc(F)c3)c2)n(CC(=O)NCc2ccc(C(=N)N)cc2)c1=O [Example 128-12] | 62 |
| CC(C)Nc1nc(Cl)c(-c2cc(N)cc(C(=O)NCc3cccc(C(F)(F)F)c3)c2)n(CC(=O)NCc2ccc(C(=N)N)cc2)c1=O [Example 128-13] | 181 |
| CC(C)CNC(=O)c1cc(N)cc(-c2c(Cl)nc(NC(C)C)c(=O)n2CC(=O)NCc2ccc(C(=N)N)cc2)c1 [Example 128-14] | 36 |
| CC(C)Nc1nc(Cl)c(-c2cc(N)cc(C(=O)NC3CCCC3)c2)n(CC(=O)NCc2ccc(C(=N)N)cc2)c1=O [Example 128-16] | 37 |
| CC(C)Nc1nc(Cl)c(-c2cc(N)cc(C(=O)NC3CCCCCC3)c2)n(CC(=O)NCc2ccc(C(=N)N)cc2)c1=O [Example 128-17] | 50 |
| CC(C)Nc1nc(Cl)c(-c2cc(N)cc(C(=O)NCc3cccnc3)c2)n(CC(=O)NCc2ccc(C(=N)N)cc2)c1=O [Example 128-18] | 94 |
| CC(C)Nc1nc(Cl)c(-c2cc(N)cc(C(=O)NCc3ccccn3)c2)n(CC(=O)NCc2ccc(C(=N)N)cc2)c1=O [Example 128-19] | 133 |
| COc1ccc(CCNC(=O)c2cc(N)cc(-c3c(Cl)nc(NC(C)C)c(=O)n3CC(=O)NCc3ccc(C(=N)N)cc3)c2)cc1 [Example 128-20] | 81 |
| CC(C)Nc1nc(Cl)c(-c2cc(N)cc(C(=O)NCCCc3ccccc3)c2)n(CC(=O)NCc2ccc(C(=N)N)cc2)c1=O [Example 128-21] | 116 |
| CC(C)Nc1nc(Cl)c(-c2cc(N)cc(C(=O)NCC(c3ccccc3)c3ccccc3)c2)n(CC(=O)NCc2ccc(C(=N)N)cc2)c1=O [Example 128-22] | 155 |
| CC(C)Nc1nc(Cl)c(-c2cc(N)cc(C(=O)NCc3ccc4ccccc4c3)c2)n(CC(=O)NCc2ccc(C(=N)N)cc2)c1=O [Example 128-23] | 78 |
| CC(C)Nc1nc(Cl)c(-c2cc(N)cc(C(=O)NC3CCc4ccccc4C3)c2)n(CC(=O)NCc2ccc(C(=N)N)cc2)c1=O (stereo not drawn) [Example 128-24] | 60 |
| N=C(N)c1ccc(Cc2cccc(-n3c(-c4cccc(N)c4)c(Cl)nc(NC4CCC4)c3=O)c2)cc1 [Example 138] | 700 |
| CC(C)Nc1nc(Cl)c(-c2cccc(N)c2)n(CC(=O)NCC2CCC(C(=N)N)C=N2)c1=O (stereo not drawn) [Example 150] | 280 |
| CC(C)Nc1nc(Cl)c(-c2cccc(N)c2)n(CC(=O)NNc2ccc(C(=N)N)cc2)c1=O [Example 157] | 90 |

Second part, the molecule after the results:

| IC50 [nM] | Compound |
| --- | --- |
| 25 | N=C(N)c1ccc(CNC(=O)Cn2c(-c3ccc(C(=N)N)cc3)c(Cl)nc(NC3CCC3)c2=O)cc1 [Example 113] |
| 24 | N=C(N)c1ccc(CNC(=O)Cn2c(-c3cccc(C(=N)N)c3)c(Cl)nc(NC3CCC3)c2=O)cc1 [Example 114] |
| 40 | N=C(N)c1ccc(CNC(=O)Cn2c(-c3ccc(N)cc3)c(Cl)nc(NC3CCC3)c2=O)cc1 [Example 115] |
| 190 | N=C(N)c1ccc(CNC(=O)Cn2c(-c3ccccc3N)cnc(NC3CCC3)c2=O)cc1 [Example 116] |
| 60 | N=C(N)c1ccc(CNC(=O)Cn2c(-c3cc(N)cc(C(=O)O)c3)cnc(NC3CCC3)c2=O)cc1 [Example 118] |
| 19 | N=C(N)c1ccc(CNC(=O)Cn2c(-c3cc(N)cc(N)c3)cnc(NC3CCC3)c2=O)cc1 [Example 119] |
| 27 | CC(C)Nc1nc(Br)c(-c2cccc(N)c2)n(CC(=O)NCc2ccc(C(=N)N)cc2)c1=O [Example 124] |
| 30 | COC(=O)c1cc(N)cc(-c2c(Cl)nc(NC3CCC3)c(=O)n2CC(=O)NCc2ccc(C(=N)N)cc2)c1 [Example 127] |
| 36 | CC(C)Nc1nc(Cl)c(-c2cc(N)cc(C(=O)NC3CCC3)c2)n(CC(=O)NCc2ccc(C(=N)N)cc2)c1=O [Example 128-15] |
| 51 | CC(CNc1nc(Cl)c(-c2cccc(N)c2)n(CC(=O)NCc2ccc(C(=N)N)cc2)c1=O)C(=O)O (stereo not drawn) [Example 129] |
| 9100 | N=C(N)c1ccc(S(=O)(=O)NCCn2c(-c3cccc(N)c3)c(Cl)nc(NC3CCC3)c2=O)cc1 [Example 137] |
| 730 | N=C(N)c1ccc(CNCCn2c(-c3cccc(N)c3)c(Cl)nc(NC3CCC3)c2=O)cc1 [Example 139] |
| 1170 | N=C(N)c1ccc(COCCn2c(-c3cccc(N)c3)c(Cl)nc(NC3CCC3)c2=O)cc1 [Example 140] |
| 125 | N=C(N)c1ccc(CCC(=O)Cn2c(-c3cccc(N)c3)c(Cl)nc(NC3CCC3)c2=O)cc1 [Example 142] |
| 2630 | N=C(N)c1ccc(C(O)CCCn2c(-c3cccc(N)c3)c(Cl)nc(NC3CCC3)c2=O)cc1 (stereo not drawn) [Example 143] |
| 21600 | Nc1cccc(-c2c(Cl)nc(NC3CCC3)c(=O)n2CC(=O)NCc2ccc3[nH]cnc3c2)c1 [Example 146] |
| > 30000 | Nc1cccc(-c2c(Cl)nc(NC3CCC3)c(=O)n2CC(=O)NCc2ccc3ccnc(N)c3c2)c1 [Example 147] |
| 380 | N=C(NC(=O)OCc1ccccc1)c1ccc(CNC(=O)Cn2c(-c3cccc(N)c3)c(Cl)nc(NC3CCC3)c2=O)cc1 [Example 151] |
| > 30000 | Nc1ccc(CNC(=O)Cn2c(-c3cccc(N)c3)c(Cl)nc(NC3CCC3)c2=O)cc1 [Example 158] |
| 27600 | N=C(NCc1ccccc1)c1ccc(CNC(=O)Cn2c(-c3cccc(N)c3)c(Cl)nc(NC3CCC3)c2=O)cc1 [Example 160] |
| 90000 | CC(C)NC(=N)c1ccc(CNC(=O)Cn2c(-c3cccc(N)c3)c(Cl)nc(NC3CCC3)c2=O)cc1 [Example 161] |

Same assay, conditions: 1 h, read-out: % Inhibition Trpysin II (30 µM)

| inhibition at 30 µM [%] | Compound |
| --- | --- |
| 2 | N=C(N)c1ccc(NC(=O)Cn2c(-c3cccc(N)c3)c(Cl)nc(NC3CCC3)c2=O)cc1 [Example 141] |
| 34 | Nc1cccc(-c2c(Cl)nc(NC3CCC3)c(=O)n2CC(=O)NCc2ccc3c(N)nsc3c2)c1 [Example 145] |
| 33 | N/N=C(/N)c1ccc(CNC(=O)Cn2c(-c3cccc(N)c3)c(Cl)nc(NC3CCC3)c2=O)cc1 [Example 148] |
| 15 | Nc1cccc(-c2c(Cl)nc(NC3CCC3)c(=O)n2CC(=O)NCc2ccc(-c3noc(=O)[nH]3)cc2)c1 [Example 152] |
| 8 | Nc1cccc(-c2c(Cl)nc(NC3CCC3)c(=O)n2CC(=O)NCc2ccc(-c3n[nH]c(=O)[nH]3)cc2)c1 [Example 153] |
| 7 | NC1=NCCSc2cc(CNC(=O)Cn3c(-c4cccc(N)c4)c(Cl)nc(NC4CCC4)c3=O)ccc21 [Example 154] |
| 4 | CC(C)Nc1nc(Cl)c(-c2cccc(N)c2)n(CC(=O)Nc2ccc(S(=O)(=O)NC(=N)N)cc2)c1=O [Example 155] |
| 21 | CC(C)Nc1nc(Cl)c(-c2cccc(N)c2)n(CC(=O)NCc2ccc(C(N)=S)cc2)c1=O [Example 156] |

Same assay, conditions: at 30 µM inhibitor

| % Inhibition Trpysin II (30 µM) [%] | Compound |
| --- | --- |
| 0 | Cc1c(Cl)nc(NCCc2ccc(Cl)cc2)c(=O)n1CC(=O)NCc1ccc(C(=N)N)cc1 [1471-2] |

Same assay, conditions: read-out: IC50 Trpysin II

| Compound | IC50 [nM] |
| --- | --- |
| CC(C)Nc1nc(Cl)c(-c2cc(N)cc(C(=O)NCc3ccc(Cl)cc3Cl)c2)n(CC(=O)NCc2ccc(C(=N)N)cc2)c1=O [Example 128-5] | 90 |
| CC(C)Nc1nc(Cl)c(-c2cc(N)cc(C(=O)NCc3ccc(Br)cc3)c2)n(CC(=O)NCc2ccc(C(=N)N)cc2)c1=O [Example 128-8] | 104 |

The remaining lines, values ahead:

| IC50 [nM] | Compound |
| --- | --- |
| 33 | C[C@@H](Nc1nc(Cl)c(-c2cccc(N)c2)n(CC(=O)NCc2ccc(C(=N)N)cc2)c1=O)C(=O)O [Example 134] |
| 1600 | C[C@H](Nc1nc(Cl)c(-c2cccc(N)c2)n(CC(=O)NCc2ccc(C(=N)N)cc2)c1=O)C(=O)O [Example 135] |
